Values of other authors in article PMC3594649 (Molecular pharmaceutics, 2013).

Conditions: rifampicin treatment, humans; cited from earlier work

CO[C@H]1/C=C/O[C@@]2(C)Oc3c(C)c(O)c4c(O)c(c(/C=N/N5CCN(C)CC5)c(O)c4c3C2=O)NC(=O)/C(C)=C\C=C\[C@H](C)[C@H](O)[C@@H](C)[C@@H](O)[C@@H](C)[C@H](OC(C)=O)[C@@H]1C [rifampicin]
decrease of midazolam AUC: 70%
